# High-throughput results: PubChem BioAssay, National Center for Advancing Translational Sciences (NCATS)
# Shown are actives, neighbours in structure and some others; about 16% of the full set was active somewhere.
# miR-21 reporter: miR-21 reporter, rising signal; HeLa miR-21 FLuc reporter, luciferase, 48 h; Potency, µM (highest dose often 38.3 µM); 340,000 tested, under 10 active; AID 2288; active = well fitted rising curve with a large enough effect; inconclusive = small, poorly fitted or top-dose-only effect; inactive = no such curve, though single readings can be large or run the other way;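 further: miR-21 action dims this reporter so a rising signal means less miR-21 action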
#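 Using DMEM plus 10% FBS, HeLa miR-21-FLuc cells are incubated with test compounds (final up to about 40uM) for 48 hours; firefly luciferase signal is then imaged following reagent-mediated lysis.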
# TDP1 cell CPT: DT40-hTDP1 cell growth loss with CPT | chicken DT40 Tdp1-/-;hTDP1 cells + 20 nM CPT, ATP luminescence, 48 h | actives 12% (n = 420,000) | AID 686979 | Potency, µM (highest dose often 46.2 µM), hits mostly inhibitors; also: nearly all actives have a fitted effect of over 55% in size
#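 Chicken DT40 Tdp1-/- cells stably complemented with human TDP1 were seeded at 400 cells/well in medium containing 20 nM camptothecin, exposed to pin-transferred compounds, and grown at 37 °C for at least 48 hr. Viability was read as ATP luminescence.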
# TDP1 inh: inhibitors of human tyrosyl-DNA phosphodiesterase TDP1 | Q9NUW8 | recombinant TDP1, AlphaScreen DNA substrate cleavage | Potency, µM (doses to about 130 µM), most hits filed as inhibitors | actives 0.28% (n = 350,000) | AID 485290; also: nearly all actives have a fitted effect of over 40% in size
#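 Compounds were preincubated with Tdp1 (1 nM final) for 15 min at room temperature before substrate (15 nM final) started a 5 min reaction; beads (10 ug/ml final) were then added for 10 min before AlphaScreen detection.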
# DT40 TDP1 no CPT: qHTS for Inhibitors of human tyrosyl-DNA phosphodiesterase 1 (TDP1): qHTS in cells in absence of CPT. DT40 Tdp1-/- hTDP1 cells, no CPT, ATP luminescence, 48 h. Potency, µM (series often up to 46.2 µM), most hits filed as inhibitors. actives 15% (n = 420,000); also: nearly all actives have a fitted effect of over 55% in size
#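 Chicken DT40 Tdp1-/- cells stably complemented with human TDP1 were seeded at 400 cells/well with DMSO in place of 20 nM camptothecin. After compound pinning, cells grew at least 48 hr at 37 °C; viability read by CellTiter-Glo luminescence.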
# uPA surface inh: blocks generation of uPA at the cell surface. Potency, µM (doses to about 38.3 µM), usual class: inhibitors. cell surface uPA generation assay, qHTS. actives 0.31% (n = 330,000); active = well fitted inhibition curve with a large enough effect; inconclusive = small, poorly fitted or top-dose-only effect; inactive = no such curve, though single readings can be large or run the other way; tested in mouse RAW 264.7 cells; also: nearly all actives have a fitted effect of over 55% in size
# Numbers stand for hits; – = inactive; ? = inconclusive; · = not tested or not shown; [ ] = another dose, or the depositor's remark. Unless noted, calls follow the shape of the dose curve; as a rule, active = well fitted curve in the direction sought with a large enough effect; inconclusive = small, poorly fitted or top-dose-only effect, or another doubt; inactive = no such curve, though single readings can be large; an effect the other way counts as inactive or inconclusive.
SMILES,miR-21 reporter,TDP1 cell CPT,TDP1 inh,DT40 TDP1 no CPT,uPA surface inh
O=C(OCc1cc(=O)n2nc(-c3cccs3)sc2n1)c1ccc(F)cc1,–,–,–,–,·
CC(=O)Nc1ccc(Nc2nc(-c3cc4ccccc4oc3=O)cs2)cc1,–,8.2µM,–,18µM,–
O=C(O)c1ccc(Nc2nc(-c3cc4ccccc4oc3=O)cs2)cc1O,–,?,79µM,?,–
O=C(Nc1nc(-c2cc3ccccc3oc2=O)cs1)c1ccc(Br)o1,–,–,?,–,–
Nc1ccc(Nc2nc(-c3cc4ccccc4oc3=O)cs2)cc1,–,18µM,–,8.2µM,–
COc1cc(Cl)c(C)cc1NC(=O)Cn1c(NCCO)nc2ccccc21,–,–,–,?,–
CCC(=O)N1CCc2cc(S(=O)(=O)NCCC(=O)NCc3ccccc3OC)ccc21,–,–,–,–,–
O=C(CCSc1ccccc1Cl)NNC(=O)c1ccncc1,·,–,–,–,–
O=C1COc2ccc(S(=O)(=O)CCC(=O)N3CCN(c4cccc(Cl)c4)CC3)cc2N1,–,10µM,–,18µM,–
O=C(CCS(=O)(=O)c1ccc2c(c1)NC(=O)CO2)NCCc1ccc(Cl)cc1,–,–,–,–,–
Cc1ccc(N2CCN(C(=O)CCS(=O)(=O)c3cc4c(cc3Cl)NC(=O)CO4)CC2)c(C)c1,–,23µM,–,21µM,·
Cc1ccc(Cl)cc1N1CCN(C(=O)CCS(=O)(=O)c2ccc3c(c2)NC(=O)CO3)CC1,?,?,–,10µM,–
O=C1COc2cc(S(=O)(=O)CCC(=O)N3CCN(c4ccccc4F)CC3)c(Cl)cc2N1,–,·,–,·,·
O=C(NN=C1CCCC1)c1cccc(Br)c1,–,–,–,–,–
Cc1ccc(-c2nnc(N3CC(C)OC(C)C3)c3ccccc23)cc1 (centres undefined),–,29µM,–,16µM,–
Cc1ccc(-c2nnc(N3CCCCC3)c3ccccc23)cc1,–,?,·,23µM,–
COc1nnc(-c2ccc(N3CCCCC3)c(N)c2)c2ccccc12,·,7.3µM,·,8.2µM,–
O=S(=O)(c1ccccc1)N1CCN(c2nnc(-c3ccccc3)c3ccccc23)CC1,–,18µM,–,15µM,–
COc1ccc(C(O)P(=O)(OCc2ccccc2)c2ccc(N(C)C)cc2)cc1 (centres undefined),–,?,–,?,–
Cc1cnc(C)cn1,·,–,·,–,·
COc1ccccc1/C(C)=N/NC(=O)c1nnn(-c2nonc2N)c1C(C)C,–,?,–,?,–
Cc1ccc(Oc2nnc(-c3ccc(C)cc3)c3ccccc23)cc1,–,21µM,–,15µM,–
CCCCSc1nnc(-c2ccc(C)cc2)c2ccccc12,–,21µM,–,18µM,–
COc1ccccc1C(=O)Nc1ccc(Oc2nnc(-c3ccc(C)cc3)c3ccccc23)cc1,–,?,–,?,–
COc1ccc(-c2nnn3c2nc(N2CCCC(C)C2)c2ccccc23)cc1 (centres undefined),–,?,–,29µM,·
SMILES,miR-21 reporter,TDP1 cell CPT,TDP1 inh,DT40 TDP1 no CPT,uPA surface inh
COc1ccc(-c2nnc(N3CCC(C)CC3)c3ccccc23)cc1,–,?,–,16µM,–
CCS(=O)(=O)N1CCC(C(=O)Oc2ccccc2OC)CC1,–,–,·,–,–
CCOC(=O)Cc1nnn(CC(=O)OCC)n1,–,–,–,–,–
CCn1c(SCC(=O)c2ccc(C)cc2)nnc1-c1ccncc1,–,–,–,–,·
CCn1c(SCC(=O)NNC(=O)c2ccc(C)cc2)nnc1-c1ccncc1,·,–,·,21µM,–
COc1ccc(S(=O)(=O)N(CCc2ccccc2)CC(=O)Nc2cccc(OC)c2)cc1,–,?,–[12.3 µM],18µM,·
COCCNC(=O)CN(CCc1ccccc1)S(=O)(=O)c1ccc(OC)cc1,–,–,–,–,–
COc1ccc(S(=O)(=O)N(CCc2ccccc2)CC(=O)NCc2ccc(C)cc2)cc1,–,?,–[12.3 µM],21µM,·
COc1ccc(S(=O)(=O)N(CCc2ccccc2)CC(=O)Nc2ccc(C)c(C)c2)cc1OC,?,15µM,–[12.3 µM],16µM,·
CSc1ccccc1NC(=O)CN(C)CC(=O)Nc1cc(C)ccc1C,–,–,–,21µM,–
CC1=CC(C)(C)NC(=S)N1c1cccc2cc(S(=O)(=O)O)ccc12,–,–,?,–,–
CCN(CC)c1ccc(NC(=O)COC(=O)CCc2cc(OC)c(OC)c(OC)c2)cc1,·,–,·,–,·
Cc1ccc(S(=O)(=O)N(CCc2ccccc2)CC(=O)Nc2cc(C)ccc2C)cc1,–,?,–,16µM,·
Cc1ccc(C)c(NC(=O)CN(C)S(=O)(=O)c2ccccc2)c1,–,–,–,–,·
COc1ccc(S(=O)(=O)N(CCc2ccccc2)CC(=O)Nc2cc(C)ccc2C)cc1,–,18µM,–[2.28 µM],21µM,·
O=C(Nc1nc2ccc(S(=O)(=O)N3CCCC3)cc2s1)c1ccccn1,–,6.5µM,–,2.9µM,–
O=C(Nc1nc2ccc(S(=O)(=O)N3CCCC3)cc2s1)c1cccc(F)c1,–,?,–,12µM,·
CNS(=O)(=O)c1ccc2nc(NC(=O)c3ccc(N4C(=O)CCC4=O)cc3)sc2c1,–,?,–,21µM,–
O=C(Nc1nc2ccc(S(=O)(=O)N3CCCCC3)cc2s1)c1cccnc1,–,–,–,?,·
CNC(=S)N1N=C(c2ccc(C)cc2)CC1c1ccc(Cl)cc1 (centres undefined),–,13µM,–,10µM,–
CNC(=S)N1N=C(c2ccc(C)cc2)CC1c1ccc(Br)cc1 (centres undefined),–,10µM,–,7.3µM,·
CC(=O)N1N=C(c2ccc(Br)cc2)CC1c1ccc(Br)cc1 (centres undefined),·,–,·,–,·
CNC(=S)N1N=C(c2ccccc2)CC1c1ccccc1Cl (centres undefined),–,?,·,?,–
O=C(O)CCC(=O)N1N=C(c2ccc(Br)cc2)CC1c1ccc(Br)cc1 (centres undefined),–,–,·,–,–
CC(C)c1ccc(C2CC(c3ccc(Br)cc3)=NN2C(N)=S)cc1 (centres undefined),–,15µM,–,9.2µM,–
CN(C)c1ccc(NC(=O)Cn2cc3c(n2)CCCC3)cc1,–,?,–,?,–
N#CCC(=O)Nc1ccc(C(=O)NNC(=S)NC2CC2)cc1,·,–,–,–,–
COc1ccc(NC(=O)c2cc(C3CCCCN3C(=O)c3cccs3)on2)c(C)c1 (centres undefined),·,21µM,·,21µM,·
COc1cc(C(=O)N2CCCCC2c2cc(C(=O)Nc3ccccc3Cl)no2)cc(OC)c1C (centres undefined),·,?,·,18µM,·
O=C(NCc1ccccc1)c1cc(C2CCCCN2C(=O)c2cccs2)on1 (centres undefined),·,18µM,·,?,·
